Sequences of proteins named here, by UniProt entry; tags and fusion partners are left off.
ADP-ribosylation factor GTPase-activating protein 1 (Rattus norvegicus), Q62848, UniProt Q62848, whole entry, looked up: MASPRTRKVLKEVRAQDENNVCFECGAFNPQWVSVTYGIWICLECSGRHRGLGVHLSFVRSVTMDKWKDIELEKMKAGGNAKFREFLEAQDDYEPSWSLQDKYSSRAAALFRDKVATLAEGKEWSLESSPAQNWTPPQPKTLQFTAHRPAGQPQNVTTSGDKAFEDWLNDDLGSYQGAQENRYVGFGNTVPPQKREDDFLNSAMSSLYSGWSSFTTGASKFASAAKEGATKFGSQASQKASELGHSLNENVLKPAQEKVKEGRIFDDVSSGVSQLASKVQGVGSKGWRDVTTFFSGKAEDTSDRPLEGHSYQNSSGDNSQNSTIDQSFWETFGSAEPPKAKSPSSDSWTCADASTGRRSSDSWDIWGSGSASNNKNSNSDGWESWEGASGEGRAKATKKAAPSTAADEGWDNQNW
Neuropilin-1 (Homo sapiens), O14786, UniProt O14786, whole entry, looked up: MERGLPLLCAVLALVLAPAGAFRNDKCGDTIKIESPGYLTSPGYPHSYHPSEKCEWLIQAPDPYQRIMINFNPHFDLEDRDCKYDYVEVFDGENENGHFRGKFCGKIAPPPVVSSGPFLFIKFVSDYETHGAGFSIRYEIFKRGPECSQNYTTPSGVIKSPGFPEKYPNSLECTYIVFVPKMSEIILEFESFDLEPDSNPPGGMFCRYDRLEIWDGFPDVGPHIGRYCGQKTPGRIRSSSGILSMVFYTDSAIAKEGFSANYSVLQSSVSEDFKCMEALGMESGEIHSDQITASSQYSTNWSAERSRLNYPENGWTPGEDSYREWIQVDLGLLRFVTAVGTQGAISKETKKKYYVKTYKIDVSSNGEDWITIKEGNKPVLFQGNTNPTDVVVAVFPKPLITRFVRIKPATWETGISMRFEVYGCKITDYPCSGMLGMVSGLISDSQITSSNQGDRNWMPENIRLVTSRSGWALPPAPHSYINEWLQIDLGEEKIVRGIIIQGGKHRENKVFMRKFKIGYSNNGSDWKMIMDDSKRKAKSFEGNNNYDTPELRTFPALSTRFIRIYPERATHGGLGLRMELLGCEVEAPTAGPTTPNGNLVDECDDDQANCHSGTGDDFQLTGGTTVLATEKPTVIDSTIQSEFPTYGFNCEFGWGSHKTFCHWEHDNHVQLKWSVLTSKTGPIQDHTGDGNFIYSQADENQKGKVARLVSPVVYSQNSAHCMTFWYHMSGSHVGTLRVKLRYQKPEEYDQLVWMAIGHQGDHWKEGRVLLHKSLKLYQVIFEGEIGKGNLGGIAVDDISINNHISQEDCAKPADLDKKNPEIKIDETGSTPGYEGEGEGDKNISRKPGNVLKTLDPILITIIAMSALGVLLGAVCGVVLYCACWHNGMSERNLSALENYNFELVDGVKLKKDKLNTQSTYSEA

# Most compounds without a hit are left out; they make up all but 2.3% or so of the library.
# ARFGAP1 inhibitor – inhibitors of rat ARFGAP1 GAP activity, primary screen, biochemical, fluorescence polarization, GDP tracer; ADP-ribosylation factor GTPase-activating protein 1 (Rattus norvegicus), Q62848; actives 0.26% (n = 360,000); Arfgap1-stimulated ARF1 GTP hydrolysis, GDP FP detection; AID 651572, 2012; inhibition, % at 16.5 µM;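 active = inhibition above a per-plate limit, mean inhibition of low control wells plus 3 SD, cut at about 25% in these data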;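 also: 0% = DMSO wells with enzyme and 100% = wells lacking Arfgap1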
#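 Material – truncated rat Arfgap1 GAP domain · Buffer or medium – HEPES-based buffer, pH 7.5 · Reagent – human ARF1(Δ1-17)-GTP substrate · Dosing – 16.5 µM single point, 1.26% DMSO · Schedule – GTP hydrolysis reaction 2 h at 25 °C · Technique – GDP detection by fluorescence polarization · Benchmarks – No-Arfgap1 wells (100%) versus DMSO full-reaction wells (0%) · Repeats – single replicate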
# MC4R ag barr – MC4R agonists recruiting beta-arrestin, primary screen, cell-based, luminescence, agonist arm of biased-ligand search. actives 0.98% (n = 360,000). AID 540308, 2011. U2OS MC4R beta-arrestin complementation; percent of melanotan II response, DMSO zero. activation, % at 8.9 µM;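 active = activation above a per-plate cutoff, the mean activation of sample wells on that plate plus 3 SD, cut at about 8% in these data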
# MC4R antagonist – MC4R antagonists of cAMP signaling, primary screen, cell-based, TR-FRET, antagonist arm of biased-ligand search; actives 0.48% (n = 360,000); inhibition, % at 6.5 µM; MC4R-expressing cells, MTII-stimulated cAMP, LANCE TR-FRET; AID 540295, 2011;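 active = inhibition above its plate's cutoff, the mean of tested wells on that plate plus 3 SD, cut at about 29% in these data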;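 also: 0% = Melanotan II alone and 100% = Melanotan II plus saturating MCL0020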
#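 Assay system: human MC4R-expressing U2OS cells; reagent: Melanotan II stimulation of cells; dosing: 6.5 µM single dose; timing: compound 30 min, challenge 1 h, detection 1 h; signal: TR-FRET cAMP assay; replicates: one well per compound, no replicates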
# NRP1-CendR mod – modulators of CendR peptide binding to NRP-1, primary screen, biochemical, fluorescence polarization, uHTS; Neuropilin-1 (Homo sapiens), O14786; FAM-RPARPAR peptide binding to NRP-1; inhibition, % at 25 µM; actives 0.85% (n = 360,000); AID 602438, 2012;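 active = inhibition or corrected inhibition above about 18%, plus a signal ratio from 0.5 to 1.5, limit read from the data, passing the limit was not always enough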
# UUG fidelity – alters start codon recognition fidelity in yeast | S. cerevisiae UUG-firefly luciferase reporter, luminescence/redox ratio | activity score, % at 18.7 µM | 350,000 compounds, 0.13% hits | AID 602363;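 active = replicate mean at a twofold rise or more, about +100% in these data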;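 note: firefly luciferase made from a UUG start codon reports start codon fidelity; reporter light over untreated wells divided by growth signal over untreated wells; some hits fall short of that in this replicate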
# ASAP1 GAP inh – inhibitors of human ASAP1 ArfGAP activity, primary screen, biochemical, fluorescence polarization; inhibition, % at 16.5 µM; Arf-GAP with SH3 domain, ANK repeat and PH domain-containing protein 1 (Homo sapiens), …; ASAP1-stimulated ARF1 GTP hydrolysis, GDP FP detection; AID 624377, 2012; actives 0.19% (n = 360,000); in the data active = inhibition above about 25%;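 also: 0% = vehicle with enzyme and substrate and 100% = no enzyme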
# MC4R barr conf – MC4R beta-arrestin agonists, retest, confirmation, cell-based, luminescence, U2OS | shares compounds with MC4R ag barr | U2OS MC4R beta-arrestin recruitment; scaled DMSO 0%, Melanotan II 100% | activation, % at 8.9 µM | actives 31% (n = 2,400) | AID 602192, 2012;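 active = mean activation across replicates above the hit cutoff set in the earlier primary screen, cut at about 8% in these data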
# MOR-DOR barr ag – agonists of MOR-DOR heterodimerization, counter-screen for MC4R biased agonist project, cell-based, luminescence; shares compounds with MC4R ag barr; U2OS PathHunter beta-arrestin, beta-gal luminescence; percent of deltorphin B response, DMSO zero; activation, % at 9.2 µM; actives 5.8% (n = 2,400); AID 602194, 2012;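 active = mean activation across replicates exceeds the hit threshold derived in the earlier primary screen, cut at about 18% in these data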;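 also: 100% = deltorphin B at 0.9 µM final and 0% = DMSO alone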
# * hit, by the source's call; . = no result given.
# Codes – A = ARFGAP1 inhibitor; B = MC4R ag barr; C = MC4R antagonist; D = NRP1-CendR mod; E = UUG fidelity; F = ASAP1 GAP inh; G = MC4R barr conf; H = MOR-DOR barr ag
SMILES: CCCCCCCCCCS(=O)(=O)N/N=C/c1ccc([N+](=O)[O-])cc1
  A: -6 | B: 13* | C: 10 | D: 10 | E: -14 | F: -4 | G: 7 | H: 2
SMILES: Cc1ccc(/C=N/NS(=O)(=O)c2ccc([N+](=O)[O-])cc2)o1
  A: 6 | B: 0 | C: 0 | D: -4 | E: -10 | F: 10 | G: . | H: .
SMILES: CC=Cc1ccc2n(c1=O)C[C@H]1[C@H](CO)[C@@H](C(=O)N(C)C)[C@@H]2N1CC1CCCCC1 (mixture of isomers)
  A: . | B: . | C: . | D: . | E: 19 | F: . | G: . | H: .
SMILES: CCCN(C)C[C@@H]1Oc2ncc(Br)cc2C(=O)N([C@@H](C)CO)C[C@@H]1C
  A: . | B: . | C: . | D: . | E: 8 | F: . | G: . | H: .
SMILES: CC(C)OC(=O)c1c(NC(=O)Cn2cnc([N+](=O)[O-])n2)sc2c1CCCC2
  A: -8 | B: 9.9* | C: 11 | D: 12 | E: -16 | F: -4 | G: 0 | H: 4
SMILES: CCOC(=O)c1c(NC(=O)Cn2cnc([N+](=O)[O-])n2)sc2c1CCCC2
  A: 5 | B: 2 | C: -4 | D: 5 | E: . | F: 6 | G: . | H: .
SMILES: O=c1c2ccccc2nc(/C=C/c2ccc(O)cc2)n1CCc1ccccc1
  A: 7 | B: 15* | C: 16 | D: -6 | E: -14 | F: 6 | G: 1 | H: 7
SMILES: O=C(Nc1ccc(Br)cc1)c1ccc(CSC2=NCCS2)cc1
  A: -3 | B: 29* | C: 1 | D: 10 | E: -15 | F: -1 | G: 3 | H: 13
SMILES: C[C@@H]1CN([C@@H](C)CO)C(=O)Cc2cc(NC(=O)CCCCCC(=O)Nc3ccccc3N)ccc2O[C@@H]1CN(C)C(=O)Nc1ccc2c(c1)OCO2
  A: . | B: . | C: . | D: . | E: 20 | F: . | G: . | H: .
SMILES: C(=N\NC1=Nc2cccc3cccc1c23)/c1ccccn1
  A: 8 | B: -2 | C: -6 | D: -73 | E: . | F: 12 | G: . | H: .
SMILES: Clc1ccccc1/C=N/NC1=Nc2cccc3cccc1c23
  A: -4 | B: 18* | C: -19 | D: -21 | E: . | F: -10 | G: 25* | H: 8
SMILES: Cc1cc(C)cc(OCC(=O)Nc2nc(-c3ccccn3)cs2)c1
  A: 1 | B: 12* | C: -9 | D: -9 | E: -17 | F: -5 | G: 3 | H: 3
SMILES: Cc1ccc(-c2ccc(/C=N\NC(=O)C3C(=O)NCC3c3ccccc3)o2)cc1Cl (stereo unspecified)
  A: -3 | B: 13* | C: 2 | D: 11 | E: -19 | F: -3 | G: 5 | H: 2
SMILES: CO[C@@H]1CN(C)C(=O)c2ccc(NC(=O)Nc3ccccc3F)cc2OC[C@H](C)NC[C@H]1C
  A: . | B: . | C: . | D: . | E: 9 | F: . | G: . | H: .
SMILES: COc1cc(/C=C2/CC/C(=C/c3ccc(O)c(OC)c3)C2=O)ccc1O
  A: 14 | B: 55* | C: -12 | D: -221 | E: . | F: -9 | G: 32* | H: 18*
SMILES: C=CCSc1nc2sc(-c3ccccc3)cc2c(=O)n1N
  A: -7 | B: 19* | C: 3 | D: 10 | E: 0 | F: -3 | G: 21* | H: 21*
SMILES: CCC(=O)N[C@H]1CC[C@@H](CCn2cc(CN(C)C)nn2)O[C@H]1CO
  A: . | B: . | C: . | D: . | E: -12 | F: . | G: . | H: .
SMILES: O=C1NC2(NN1c1ccccc1)C1CC3CC(C1)CC2C3 (stereo unspecified)
  A: 5 | B: 18* | C: 15 | D: 9 | E: -5 | F: -1 | G: 3 | H: 5
SMILES: O=C1NC2(CCC3(CC2)OCCO3)NN1c1ccccc1
  A: 6 | B: -2 | C: 3 | D: -2 | E: . | F: 6 | G: . | H: .
SMILES: O=C(OCC(O)C(O)C(O)COC(=O)c1ccccc1)c1ccccc1 (stereo unspecified)
  A: -4 | B: -3 | C: 26 | D: 4 | E: -5 | F: -6 | G: . | H: .

# For convenience, part of the list above.
# Codes – A = ARFGAP1 inhibitor; B = MC4R ag barr; C = MC4R antagonist; D = NRP1-CendR mod; E = UUG fidelity; F = ASAP1 GAP inh; G = MC4R barr conf; H = MOR-DOR barr ag
SMILES: C=CCSc1nc2sc(-c3ccccc3)cc2c(=O)n1N
  A: -7 | B: 19* | C: 3 | D: 10 | E: 0 | F: -3 | G: 21* | H: 21*
SMILES: CCC(=O)N[C@H]1CC[C@@H](CCn2cc(CN(C)C)nn2)O[C@H]1CO
  A: . | B: . | C: . | D: . | E: -12 | F: . | G: . | H: .
